According to patent US10112939B2, “Tied-back benzamide derivatives as potent rock inhibitors” (Bristol-Myers Squibb Company, priority 2014, dated 2018):
Where two headings read alike, the source gives them in different places.

The chains behind the UniProt entries cited, without tags or fusion partners.
UniProt O75116, whole entry, species assumed: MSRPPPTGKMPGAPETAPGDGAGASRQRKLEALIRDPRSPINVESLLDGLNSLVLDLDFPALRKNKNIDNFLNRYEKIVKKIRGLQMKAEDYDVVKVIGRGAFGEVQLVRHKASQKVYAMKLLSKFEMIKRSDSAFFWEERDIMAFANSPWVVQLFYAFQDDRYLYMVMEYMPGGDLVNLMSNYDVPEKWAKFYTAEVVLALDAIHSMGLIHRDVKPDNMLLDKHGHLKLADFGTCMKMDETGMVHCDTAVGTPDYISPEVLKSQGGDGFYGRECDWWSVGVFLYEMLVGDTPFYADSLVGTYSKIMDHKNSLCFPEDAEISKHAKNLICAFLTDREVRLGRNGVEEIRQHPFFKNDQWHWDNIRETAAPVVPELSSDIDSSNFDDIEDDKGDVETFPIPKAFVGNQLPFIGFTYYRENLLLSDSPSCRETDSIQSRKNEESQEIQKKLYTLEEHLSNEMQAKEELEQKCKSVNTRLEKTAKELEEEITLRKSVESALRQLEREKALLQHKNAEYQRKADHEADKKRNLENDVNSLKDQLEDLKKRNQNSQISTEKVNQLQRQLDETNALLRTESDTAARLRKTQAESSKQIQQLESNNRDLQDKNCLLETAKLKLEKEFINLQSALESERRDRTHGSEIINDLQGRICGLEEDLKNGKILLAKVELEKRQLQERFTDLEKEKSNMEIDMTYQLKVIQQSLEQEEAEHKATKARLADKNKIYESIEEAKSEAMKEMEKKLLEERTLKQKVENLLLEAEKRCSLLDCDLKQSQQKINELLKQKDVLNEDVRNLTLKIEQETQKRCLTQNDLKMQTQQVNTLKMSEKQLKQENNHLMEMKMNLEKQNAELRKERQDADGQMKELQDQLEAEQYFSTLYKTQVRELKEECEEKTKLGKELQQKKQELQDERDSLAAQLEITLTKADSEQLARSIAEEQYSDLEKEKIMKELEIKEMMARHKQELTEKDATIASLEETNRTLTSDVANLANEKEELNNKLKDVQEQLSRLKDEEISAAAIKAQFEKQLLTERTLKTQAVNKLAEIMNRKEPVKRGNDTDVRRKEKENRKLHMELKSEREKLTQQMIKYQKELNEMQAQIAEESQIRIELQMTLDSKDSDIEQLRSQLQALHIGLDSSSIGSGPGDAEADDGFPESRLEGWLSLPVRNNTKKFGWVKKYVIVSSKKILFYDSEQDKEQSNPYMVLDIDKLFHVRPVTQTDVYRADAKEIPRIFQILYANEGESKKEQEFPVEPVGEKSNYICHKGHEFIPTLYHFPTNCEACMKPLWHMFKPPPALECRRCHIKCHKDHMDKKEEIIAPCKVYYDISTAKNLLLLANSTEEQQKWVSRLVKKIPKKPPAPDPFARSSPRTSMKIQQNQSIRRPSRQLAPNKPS

Biological target: ROCK2 (Homo sapiens (Human), UniProt O75116)
Experiment: ROCK assay (peptide substrate phosphorylation, LABCHIP 3000 Reader)
Format: biochemical
Procedure: Compounds were dissolved in DMSO so that the final concentration of DMSO was <2%, and the reaction was initiated with Rho kinase variants. After incubation, the reaction was terminated by the addition of EDTA and the phosphorylated and non-phosphorylated peptides separated using a LABCHIP® 3000 Reader (Caliper Life Sciences). […] Compounds were tested in dose-response format, and the inhibition of kinase activity was calculated at each concentration of compound.

[1] = 5 μM ATP, 1.5 μM peptide substrate

Row | IC50 [1] [nM] | Structure (SMILES) | IC50 [nM]
1 | 751 | COc1cc(C(=O)N2CCCC2c2cccc(C(=O)NC3CCN(C)CC3)c2)ccc1-c1cn[nH]c1 (stereo not drawn) [Example 37, 3-{1-[3-methoxy-4-(1H-pyrazol-4-yl)benzoyl]pyrrolidin-2-yl}-N-(1-methylpiperidin-4-yl)benzamide] | –
2 | – | COc1cc(C(=O)N2CC(O)C[C@@H]2c2cccc(C(=O)NC3(C)CCC3)c2)ccc1-c1cn[nH]c1 (stereo partly drawn) [Example 53, 3-[(2R)-4-hydroxy-1-[3-methoxy-4-(1H-pyrazol-4-yl)benzoyl]pyrrolidin-2-yl]-N-(1-methylcyclobutyl) benzamide] | 102
3 | 2.13 | COc1cc(C(=O)N2CCCC2c2cccc(C(=O)NC3CCN(C)CC3)c2)ccc1-c1cn[nH]c1 (stereo not drawn) [Example 38, 3-{1-[3-methoxy-4-(1H-pyrazol-4-yl)benzoyl]pyrrolidin-2-yl}-N-(1-methylpiperidin-4-yl)benzamide] | –
